Assay results published in publication PMC5054527, “Mechanism of high affinity inhibition of the human urate transporter URAT1” (Scientific Reports, 2016).

Amino acid sequences for entries named in this document (tags omitted). Residues count along the entry.
UniProt Q96S37, whole entry C351F/T354M: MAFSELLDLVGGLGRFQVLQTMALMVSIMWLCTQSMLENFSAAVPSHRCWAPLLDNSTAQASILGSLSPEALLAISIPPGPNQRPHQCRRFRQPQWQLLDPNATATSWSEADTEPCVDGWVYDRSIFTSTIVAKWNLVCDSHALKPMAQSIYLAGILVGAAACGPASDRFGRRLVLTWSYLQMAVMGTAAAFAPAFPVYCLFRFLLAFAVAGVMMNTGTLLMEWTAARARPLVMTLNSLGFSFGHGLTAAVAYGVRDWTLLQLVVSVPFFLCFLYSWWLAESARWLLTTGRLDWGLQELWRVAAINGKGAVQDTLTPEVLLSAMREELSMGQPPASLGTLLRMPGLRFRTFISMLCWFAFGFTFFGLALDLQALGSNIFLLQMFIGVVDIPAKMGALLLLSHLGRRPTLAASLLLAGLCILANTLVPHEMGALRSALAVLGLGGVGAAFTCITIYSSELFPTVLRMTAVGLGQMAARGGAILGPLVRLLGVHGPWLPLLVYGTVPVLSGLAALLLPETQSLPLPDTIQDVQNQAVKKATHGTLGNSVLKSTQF
UniProt Q96S37, whole entry V26T: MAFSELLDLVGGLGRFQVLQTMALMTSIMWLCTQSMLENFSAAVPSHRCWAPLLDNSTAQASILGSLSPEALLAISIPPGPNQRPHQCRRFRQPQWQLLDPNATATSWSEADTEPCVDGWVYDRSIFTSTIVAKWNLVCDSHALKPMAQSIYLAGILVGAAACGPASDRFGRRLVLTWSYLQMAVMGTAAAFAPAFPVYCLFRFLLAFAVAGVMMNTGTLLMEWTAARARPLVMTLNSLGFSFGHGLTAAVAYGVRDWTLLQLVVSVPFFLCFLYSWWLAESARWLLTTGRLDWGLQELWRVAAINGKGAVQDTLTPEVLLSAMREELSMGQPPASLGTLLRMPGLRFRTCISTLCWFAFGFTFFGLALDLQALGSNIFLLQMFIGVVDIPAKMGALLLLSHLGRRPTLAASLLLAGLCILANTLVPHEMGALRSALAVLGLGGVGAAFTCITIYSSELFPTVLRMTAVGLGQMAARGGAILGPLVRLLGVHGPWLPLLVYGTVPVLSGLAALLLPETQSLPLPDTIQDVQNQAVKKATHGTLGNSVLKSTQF
UniProt Q96S37, whole entry L31V: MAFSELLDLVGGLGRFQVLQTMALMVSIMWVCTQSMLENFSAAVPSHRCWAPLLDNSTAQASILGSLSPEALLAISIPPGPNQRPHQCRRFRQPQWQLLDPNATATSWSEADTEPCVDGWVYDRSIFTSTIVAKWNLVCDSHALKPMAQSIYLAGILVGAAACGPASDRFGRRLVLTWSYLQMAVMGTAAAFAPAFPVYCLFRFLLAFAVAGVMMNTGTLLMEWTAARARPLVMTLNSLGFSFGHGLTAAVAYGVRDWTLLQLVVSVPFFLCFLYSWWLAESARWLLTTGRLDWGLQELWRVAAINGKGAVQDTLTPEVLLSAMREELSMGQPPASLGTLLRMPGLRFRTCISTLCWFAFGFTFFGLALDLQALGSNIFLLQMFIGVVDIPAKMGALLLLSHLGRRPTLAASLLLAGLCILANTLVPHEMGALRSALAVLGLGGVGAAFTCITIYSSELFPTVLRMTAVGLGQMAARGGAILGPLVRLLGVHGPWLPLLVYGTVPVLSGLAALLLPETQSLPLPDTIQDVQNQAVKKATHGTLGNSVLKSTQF
UniProt Q96S37, whole entry S35N: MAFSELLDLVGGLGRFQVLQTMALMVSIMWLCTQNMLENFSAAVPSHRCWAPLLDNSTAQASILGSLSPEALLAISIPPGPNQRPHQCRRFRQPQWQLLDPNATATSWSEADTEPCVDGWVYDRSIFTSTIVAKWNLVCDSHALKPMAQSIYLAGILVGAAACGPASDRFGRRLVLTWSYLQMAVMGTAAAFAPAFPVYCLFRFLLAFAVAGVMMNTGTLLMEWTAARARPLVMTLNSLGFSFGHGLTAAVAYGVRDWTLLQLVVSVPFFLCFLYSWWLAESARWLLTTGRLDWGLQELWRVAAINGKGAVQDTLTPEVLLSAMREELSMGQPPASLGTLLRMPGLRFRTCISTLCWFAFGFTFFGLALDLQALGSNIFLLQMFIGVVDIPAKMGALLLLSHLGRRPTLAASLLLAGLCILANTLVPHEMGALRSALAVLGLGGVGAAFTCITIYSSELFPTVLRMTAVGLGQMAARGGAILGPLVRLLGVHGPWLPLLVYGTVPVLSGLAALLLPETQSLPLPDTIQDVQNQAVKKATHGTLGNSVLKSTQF
UniProt Q96S37, whole entry C32T: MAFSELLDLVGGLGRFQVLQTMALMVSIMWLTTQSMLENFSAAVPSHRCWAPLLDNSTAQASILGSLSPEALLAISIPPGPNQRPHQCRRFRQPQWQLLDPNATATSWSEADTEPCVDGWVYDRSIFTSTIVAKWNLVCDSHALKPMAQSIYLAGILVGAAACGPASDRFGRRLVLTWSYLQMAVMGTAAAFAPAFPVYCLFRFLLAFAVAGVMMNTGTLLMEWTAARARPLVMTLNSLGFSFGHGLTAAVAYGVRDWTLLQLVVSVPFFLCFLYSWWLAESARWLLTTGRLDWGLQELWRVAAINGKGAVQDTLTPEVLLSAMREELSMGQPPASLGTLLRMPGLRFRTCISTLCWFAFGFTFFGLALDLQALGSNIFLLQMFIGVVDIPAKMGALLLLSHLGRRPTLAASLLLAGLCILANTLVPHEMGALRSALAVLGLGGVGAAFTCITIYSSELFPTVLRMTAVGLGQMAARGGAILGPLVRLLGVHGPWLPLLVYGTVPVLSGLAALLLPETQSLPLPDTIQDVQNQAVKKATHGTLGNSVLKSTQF
UniProt Q96S37, whole entry V18L: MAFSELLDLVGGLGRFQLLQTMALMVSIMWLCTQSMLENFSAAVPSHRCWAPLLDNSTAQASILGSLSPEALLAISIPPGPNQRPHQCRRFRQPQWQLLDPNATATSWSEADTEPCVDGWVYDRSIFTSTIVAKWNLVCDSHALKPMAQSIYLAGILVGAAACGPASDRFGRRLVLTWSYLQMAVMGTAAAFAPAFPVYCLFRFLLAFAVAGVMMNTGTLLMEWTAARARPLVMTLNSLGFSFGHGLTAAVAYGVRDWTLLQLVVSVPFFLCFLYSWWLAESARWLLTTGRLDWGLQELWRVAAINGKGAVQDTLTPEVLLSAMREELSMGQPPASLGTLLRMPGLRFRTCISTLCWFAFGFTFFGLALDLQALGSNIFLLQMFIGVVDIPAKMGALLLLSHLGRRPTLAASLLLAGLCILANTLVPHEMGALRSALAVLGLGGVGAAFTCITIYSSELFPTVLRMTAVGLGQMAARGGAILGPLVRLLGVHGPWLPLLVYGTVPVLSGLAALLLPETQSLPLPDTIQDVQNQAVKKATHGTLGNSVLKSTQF
UniProt Q96S37, whole entry M22V: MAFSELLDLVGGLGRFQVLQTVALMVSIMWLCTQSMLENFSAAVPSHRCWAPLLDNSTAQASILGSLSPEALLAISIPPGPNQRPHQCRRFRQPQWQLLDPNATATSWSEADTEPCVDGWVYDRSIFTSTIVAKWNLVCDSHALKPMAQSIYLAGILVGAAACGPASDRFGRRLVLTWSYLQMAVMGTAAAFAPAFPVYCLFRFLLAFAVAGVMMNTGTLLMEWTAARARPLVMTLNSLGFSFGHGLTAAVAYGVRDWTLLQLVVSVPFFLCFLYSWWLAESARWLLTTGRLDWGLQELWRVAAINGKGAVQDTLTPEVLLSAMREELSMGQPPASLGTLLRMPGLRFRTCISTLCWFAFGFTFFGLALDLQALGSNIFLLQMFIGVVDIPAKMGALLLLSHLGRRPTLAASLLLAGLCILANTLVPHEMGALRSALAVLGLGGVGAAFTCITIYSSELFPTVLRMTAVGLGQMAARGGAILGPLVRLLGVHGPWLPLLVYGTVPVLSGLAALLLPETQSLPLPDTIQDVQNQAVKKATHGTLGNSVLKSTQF
UniProt Q96S37, whole entry M29L: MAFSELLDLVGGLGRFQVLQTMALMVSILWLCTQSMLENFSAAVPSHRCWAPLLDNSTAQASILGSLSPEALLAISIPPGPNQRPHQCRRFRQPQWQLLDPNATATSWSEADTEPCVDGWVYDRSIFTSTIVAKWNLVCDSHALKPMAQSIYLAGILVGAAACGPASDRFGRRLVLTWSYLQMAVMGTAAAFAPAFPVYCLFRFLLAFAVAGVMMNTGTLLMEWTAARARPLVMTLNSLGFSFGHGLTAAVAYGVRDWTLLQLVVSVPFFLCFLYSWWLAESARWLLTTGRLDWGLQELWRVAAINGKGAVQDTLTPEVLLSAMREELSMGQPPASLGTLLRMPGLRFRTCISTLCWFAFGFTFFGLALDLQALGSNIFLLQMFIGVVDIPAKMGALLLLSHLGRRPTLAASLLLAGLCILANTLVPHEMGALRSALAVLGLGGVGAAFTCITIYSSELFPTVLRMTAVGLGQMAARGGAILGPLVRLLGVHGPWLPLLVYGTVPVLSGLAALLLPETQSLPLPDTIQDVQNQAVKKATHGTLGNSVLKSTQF
UniProt Q96S37, whole entry S27P: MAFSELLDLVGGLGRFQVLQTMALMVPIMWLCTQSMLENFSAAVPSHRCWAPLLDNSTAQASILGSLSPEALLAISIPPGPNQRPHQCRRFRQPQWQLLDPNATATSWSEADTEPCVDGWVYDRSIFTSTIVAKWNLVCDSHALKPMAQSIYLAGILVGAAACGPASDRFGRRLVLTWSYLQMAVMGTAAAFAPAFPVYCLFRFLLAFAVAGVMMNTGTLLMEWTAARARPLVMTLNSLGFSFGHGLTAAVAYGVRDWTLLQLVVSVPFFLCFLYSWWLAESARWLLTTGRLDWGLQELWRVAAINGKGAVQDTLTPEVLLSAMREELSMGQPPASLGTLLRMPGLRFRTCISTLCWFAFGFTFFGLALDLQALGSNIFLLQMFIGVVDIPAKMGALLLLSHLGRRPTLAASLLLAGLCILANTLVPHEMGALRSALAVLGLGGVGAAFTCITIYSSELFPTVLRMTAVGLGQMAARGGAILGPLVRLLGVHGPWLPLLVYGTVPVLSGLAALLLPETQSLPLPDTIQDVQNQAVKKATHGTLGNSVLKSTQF
UniProt Q96S37, whole entry M474V: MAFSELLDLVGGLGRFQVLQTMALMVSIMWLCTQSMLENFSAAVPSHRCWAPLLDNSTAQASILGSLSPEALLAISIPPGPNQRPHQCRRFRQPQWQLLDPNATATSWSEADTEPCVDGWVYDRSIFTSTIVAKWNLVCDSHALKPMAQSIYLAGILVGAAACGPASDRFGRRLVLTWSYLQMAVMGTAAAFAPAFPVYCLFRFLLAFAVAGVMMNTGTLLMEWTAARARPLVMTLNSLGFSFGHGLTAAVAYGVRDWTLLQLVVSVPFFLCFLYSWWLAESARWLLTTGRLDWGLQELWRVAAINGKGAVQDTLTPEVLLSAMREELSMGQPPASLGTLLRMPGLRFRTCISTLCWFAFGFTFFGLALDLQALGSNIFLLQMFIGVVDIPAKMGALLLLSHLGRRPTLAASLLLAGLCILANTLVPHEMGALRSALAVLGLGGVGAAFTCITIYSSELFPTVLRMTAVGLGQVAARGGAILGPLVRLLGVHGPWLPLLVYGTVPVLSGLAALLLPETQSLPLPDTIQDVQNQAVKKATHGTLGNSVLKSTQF
UniProt Q96S37, whole entry F365Y: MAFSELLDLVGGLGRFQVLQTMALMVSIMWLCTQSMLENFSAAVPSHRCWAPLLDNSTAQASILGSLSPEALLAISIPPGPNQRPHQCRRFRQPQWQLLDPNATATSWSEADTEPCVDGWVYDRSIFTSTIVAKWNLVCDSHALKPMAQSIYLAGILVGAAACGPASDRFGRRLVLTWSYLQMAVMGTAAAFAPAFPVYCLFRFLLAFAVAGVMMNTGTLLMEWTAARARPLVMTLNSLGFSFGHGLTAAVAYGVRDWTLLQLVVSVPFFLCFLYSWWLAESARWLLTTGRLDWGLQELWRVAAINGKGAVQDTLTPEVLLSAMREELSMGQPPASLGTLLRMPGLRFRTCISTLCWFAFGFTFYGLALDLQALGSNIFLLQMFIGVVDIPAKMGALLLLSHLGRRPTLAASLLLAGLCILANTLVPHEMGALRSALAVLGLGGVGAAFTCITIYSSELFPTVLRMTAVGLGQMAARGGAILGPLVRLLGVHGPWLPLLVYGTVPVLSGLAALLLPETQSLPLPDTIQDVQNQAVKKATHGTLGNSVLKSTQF
UniProt Q3ZAV1, 100-553, stated change not applied: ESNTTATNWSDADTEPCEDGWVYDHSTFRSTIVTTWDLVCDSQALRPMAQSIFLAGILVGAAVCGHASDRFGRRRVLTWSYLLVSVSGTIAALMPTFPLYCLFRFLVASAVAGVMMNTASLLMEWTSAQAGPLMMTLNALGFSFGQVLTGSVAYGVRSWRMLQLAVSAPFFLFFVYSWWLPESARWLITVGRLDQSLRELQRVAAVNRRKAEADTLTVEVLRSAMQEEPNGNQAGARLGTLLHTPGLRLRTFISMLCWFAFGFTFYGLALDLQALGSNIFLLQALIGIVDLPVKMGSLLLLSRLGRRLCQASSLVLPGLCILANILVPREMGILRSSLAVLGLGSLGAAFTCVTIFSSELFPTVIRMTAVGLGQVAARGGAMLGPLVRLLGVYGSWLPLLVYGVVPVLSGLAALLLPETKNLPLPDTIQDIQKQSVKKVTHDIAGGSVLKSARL

Experiments:
[1] = target: T1, h-C351F/T354M hURAT1 double point mutant (Homo sapiens, UniProt Q96S37, C351F/T354M); test: URAT1 uric acid transport activity assay; assay type: cell-based; settings: MES pH 5.5, 100 μM 14C-uric acid
T1 construct: expressed in transfected cells; host or cells: HEK-293T
Text: (§1) hURAT1 (GenBank BC053348.1) and rURAT1 (NCBI NM_001034943.1) genes were purchased from Origene Technologies, Inc. and subcloned into pCMV6/neo using NotI, creating pCMV6/neo-hURAT1 and pCMV6/neo-rURAT1. Mutants were produced by polymerase chain reaction (PCR) or site-directed mutagenesis using the QuikChange Lightning Multi Site-Directed Mutagenesis Kit (Agilent Technologies). […] Detailed methods are provided in Supplementary Methods, and primers are listed in Supplementary Table 1. […] Residues in rURAT1 and hOAT1 that correspond to the residues in hURAT1 were identified from aligned protein sequences (Supplementary Fig. 1)[50].
(§2) DNA (10 μg) was mixed with 30 μl of DreamFect Gold (Boca Scientific) in 2 ml OptiMem (Life Technologies). After 20 minutes, 18 ml of media containing 2 × 10^7 cells in suspension was added and mixed, and 200 μl per well were plated onto white clear-bottomed poly-D-lysine coated 96-well plates (BD Biosciences). The cells were assayed the following day.
(§3) Compounds were serially diluted into assay buffer and added to the cells for 5 minutes prior to addition of radiolabelled uric acid substrate. URAT1-expressing cells were incubated with 100 μM ^14C-uric acid for 10 minutes. […] Each treatment was measured in triplicate.
(§4) Unlabelled uric acid was prepared at a 20 mM stock just prior to use in a solution containing 20 mM dibasic potassium phosphate and 20 mM potassium hydroxide.
(§5) Nonlinear regression analyses using GraphPad Prism software were used to calculate the potency of URAT1 inhibitors (IC50 values) from log (inhibitor) versus response - variable slope (four parameters) equations. Statistical significance was assessed using Student’s unpaired t-tests.

[2] = target: T2, h-V26T hURAT1 point mutant (Homo sapiens, UniProt Q96S37, V26T); test: URAT1 uric acid transport activity assay; assay type: cell-based; settings: MES pH 5.5, 100 μM 14C-uric acid
T2 construct: expressed in transfected cells; host or cells: HEK-293T
Text: as §1, §2, §3, §4, §5

[3] = target: T3, h-L31V hURAT1 point mutant (Homo sapiens, UniProt Q96S37, L31V); test: URAT1 uric acid transport activity assay; assay type: cell-based; settings: MES pH 5.5, 100 μM 14C-uric acid
T3 construct: expressed in transfected cells; host or cells: HEK-293T
Text: as §1, §2, §3, §4, §5

[4] = target: h-S35N hURAT1 point mutant (Homo sapiens, UniProt Q96S37, S35N); test: URAT1 uric acid transport activity assay; assay type: cell-based; settings: MES pH 5.5, 100 μM 14C-uric acid
Text: as §1, §2, §3, §4, §5

[5] = target: T4, h-C32T hURAT1 point mutant (Homo sapiens, UniProt Q96S37, C32T); test: URAT1 uric acid transport activity assay; assay type: cell-based; settings: MES pH 5.5, 100 μM 14C-uric acid
T4 construct: expressed in transfected cells; host or cells: HEK-293T
Text: as §1, §2, §3, §4, §5

[6] = target: T5, h-V18L hURAT1 point mutant (Homo sapiens, UniProt Q96S37, V18L); test: URAT1 uric acid transport activity assay; assay type: cell-based; settings: MES pH 5.5, 100 μM 14C-uric acid
T5 construct: expressed in transfected cells; host or cells: HEK-293T
Text: as §1, §2, §3, §4, §5

[7] = target: T6, h-M22V hURAT1 point mutant (Homo sapiens, UniProt Q96S37, M22V); test: URAT1 uric acid transport activity assay; assay type: cell-based; settings: MES pH 5.5, 100 μM 14C-uric acid
T6 construct: expressed in transfected cells; host or cells: HEK-293T
Text: as §1, §2, §3, §4, §5

[8] = target: T7, h-M29L hURAT1 point mutant (Homo sapiens, UniProt Q96S37, M29L); test: URAT1 uric acid transport activity assay; assay type: cell-based; settings: MES pH 5.5, 100 μM 14C-uric acid
T7 construct: expressed in transfected cells; host or cells: HEK-293T
Text: as §1, §2, §3, §4, §5

[9] = target: T8, h-S27P hURAT1 point mutant (Homo sapiens, UniProt Q96S37, S27P); test: URAT1 uric acid transport activity assay; assay type: cell-based; settings: MES pH 5.5, 100 μM 14C-uric acid
T8 construct: expressed in transfected cells; host or cells: HEK-293T
Text: as §1, §2, §3, §4, §5

[10] = target: T9, h-M474V hURAT1 point mutant (Homo sapiens, UniProt Q96S37, M474V); test: URAT1 uric acid transport activity assay; assay type: cell-based; settings: MES pH 5.5, 100 μM 14C-uric acid
T9 construct: expressed in transfected cells; host or cells: HEK-293T
Text: as §1, §2, §3, §4, §5

human URAT1 (hURAT1 WT) = human URAT1 (hURAT1 WT) (Homo sapiens, UniProt Q96S37); test: URAT1 uric acid transport activity assay; assay type: cell-based; settings: MES pH 5.5, 100 μM 14C-uric acid
Text: as §1, §2, §3, §4, §5

[11] = target: h-F365Y hURAT1 point mutant (Homo sapiens, UniProt Q96S37, F365Y); test: URAT1 uric acid transport activity assay; assay type: cell-based; settings: MES pH 5.5, 100 μM 14C-uric acid
Text: as §1, §2, §3, §4, §5

[12] = target: T10, h-M25V hURAT1 point mutant (Homo sapiens, UniProt Q96S37, M25V); test: URAT1 uric acid transport activity assay; assay type: cell-based; settings: MES pH 5.5, 100 μM 14C-uric acid
T10 construct: expressed in transfected cells; host or cells: HEK-293T
Text: as §1, §2, §3, §4, §5

[13] = target: T11, r-h TM1 chimera (hURAT1 residues 1–99 and rURAT1 residues 100–553) (UniProt Q3ZAV1+Q96S37); test: URAT1 uric acid transport activity assay; assay type: cell-based, human/rat; settings: MES pH 5.5, 100 μM 14C-uric acid
T11 construct: The chimera r-hTM1, consisting of hURAT1 residues 1–99 and rURAT1 residues 100–553; expressed in transfected cells; host or cells: HEK-293T
Text: as §1, §2, §3, §4, §5

[14] = target: T12, h-r TM1 chimera (rURAT1 residues 1–99 and hURAT residues 100–553) (UniProt Q3ZAV1+Q96S37); test: URAT1 uric acid transport activity assay; assay type: cell-based, human/rat; settings: MES pH 5.5, 100 μM 14C-uric acid
T12 construct: a chimera consisting of rURAT1 residues 1–99 and hURAT residues 100–553 (h-r TM1); expressed in transfected cells; host or cells: HEK-293T
Text: as §1, §2, §3, §4, §5

h-r TM8 URAT1 chimera = target: T13, h-r TM8 URAT1 chimera (Homo sapiens, UniProt Q96S37, A392V/A396S/F384L/H402R/I390L/M383A/P407L/V387I); test: URAT1 uric acid transport activity assay; assay type: cell-based, human/rat; settings: MES pH 5.5, 100 μM 14C-uric acid
T13 construct: expressed in transfected cells; host or cells: HEK-293T
Text: as §1, §2, §3, §4, §5

h-r TM9-C URAT1 chimera = target: T14, h-r TM9-C URAT1 chimera (Homo sapiens, UniProt Q96S37, A432I/A436S/H428R/T424I); test: URAT1 uric acid transport activity assay; assay type: cell-based, human/rat; settings: MES pH 5.5, 100 μM 14C-uric acid
T14 construct: expressed in transfected cells; host or cells: HEK-293T
Text: as §1, §2, §3, §4, §5

h-r TM9-N URAT1 chimera = target: T15, h-r TM9-N URAT1 chimera (Homo sapiens, UniProt Q96S37, A411S/A416P/L414V); test: URAT1 uric acid transport activity assay; assay type: cell-based, human/rat; settings: MES pH 5.5, 100 μM 14C-uric acid
T15 construct: expressed in transfected cells; host or cells: HEK-293T
Text: as §1, §2, §3, §4, §5

h-r TM11 URAT1 chimera = target: T16, h-r TM11 URAT1 chimera (Homo sapiens, UniProt Q96S37, I481M/M474V); test: URAT1 uric acid transport activity assay; assay type: cell-based, human/rat; settings: MES pH 5.5, 100 μM 14C-uric acid
T16 construct: expressed in transfected cells; host or cells: HEK-293T
Text: as §1, §2, §3, §4, §5

h-r TM6 URAT1 chimera = target: T17, h-r TM6 URAT1 chimera (Homo sapiens, UniProt Q96S37, C272F/L274V); test: URAT1 uric acid transport activity assay; assay type: cell-based, human/rat; settings: MES pH 5.5, 100 μM 14C-uric acid
T17 construct: expressed in transfected cells; host or cells: HEK-293T
Text: as §1, §2, §3, §4, §5

h-r TM7 URAT1 chimera = target: T18, h-r TM7 URAT1 chimera (Homo sapiens, UniProt Q96S37, C351F/F365Y/T354M); test: URAT1 uric acid transport activity assay; assay type: cell-based, human/rat; settings: MES pH 5.5, 100 μM 14C-uric acid
T18 construct: expressed in transfected cells; host or cells: HEK-293T
Text: as §1, §2, §3, §4, §5

h-r TM5-N URAT1 chimera = target: T19, h-r TM5-N URAT1 chimera (Homo sapiens, UniProt Q96S37, S238A/V233M); test: URAT1 uric acid transport activity assay; assay type: cell-based, human/rat; settings: MES pH 5.5, 100 μM 14C-uric acid
T19 construct: expressed in transfected cells; host or cells: HEK-293T
Text: as §1, §2, §3, §4, §5

h-r TM5-C URAT1 chimera = target: T20, h-r TM5-C URAT1 chimera (Homo sapiens, UniProt Q96S37, A249G/A250S/G246V/H245Q); test: URAT1 uric acid transport activity assay; assay type: cell-based, human/rat; settings: MES pH 5.5, 100 μM 14C-uric acid
T20 construct: expressed in transfected cells; host or cells: HEK-293T
Text: as §1, §2, §3, §4, §5

h-r TM12 URAT1 chimera = target: T21, h-r TM12 URAT1 chimera (Homo sapiens, UniProt Q96S37, H492Y/P494S/T503V); test: URAT1 uric acid transport activity assay; assay type: cell-based, human/rat; settings: MES pH 5.5, 100 μM 14C-uric acid
T21 construct: expressed in transfected cells; host or cells: HEK-293T
Text: as §1, §2, §3, §4, §5

[15] = target: h-r EC1,TM2-4 URAT1 chimera (Homo sapiens, UniProt Q96S37, A103T/A133T/A162V/A184S/A189I/A193M/A195T/A226S/A51V/A59S/A71V/D100E/E110D/E70D/F192L/F208S/G218A/H142Q/I126T/I75V/K134T/K145R/L174R/L206V/L64P/L67F/L99I/M183V/M186S/N136D/N82D/P101S/P165H/P69R/Q182L/R124H/R89L/S107N/S46H/S66D/S68G/T128R/T219S/V117E/V198L/Y152F); test: cell-based; settings: IC50 (uric acid transport)
Text: as §1
(§6) DNA (10 μg) was mixed with 30 μl of DreamFect Gold (Boca Scientific) in 2 ml OptiMem (Life Technologies). […]
(§7) Compounds were serially diluted into assay buffer and added to the cells for 5 minutes prior to addition of radiolabelled uric acid substrate. […] Each treatment was measured in triplicate. […]
as §5

h-r IC3 URAT1 chimera = h-r IC3 URAT1 chimera (Homo sapiens, UniProt Q96S37, F348L/G295S/G307R/G309K/G331N/I305V/K308R/L287I/L321R/L328P/M330G/M343T/P317V/P333A/P334G/Q297R/Q312A/R325Q/R342H/S329N/S336R/T289V/V311E/W294Q/W300Q); test: cell-based
Text: as §1, §6, §7, §5

O=C(O)CSc1nnc(Br)n1-c1ccc(C2CC2)c2ccccc12 [lesinurad, 2-((5-bromo-4-(4-cyclopropylnaphthalen-1-yl)-4H-1,2,4-triazol-3-yl)thio)acetic acid] showed an IC50 [1] of 6.3 ± 0.71 µM, an IC50 [2] of 3.9 ± 0.51 µM and an IC50 [3] of 5.3 ± 0.67 µM. It also gave an IC50 [4] of 5 ± 0.47 µM, an IC50 [5] of 2.9 ± 0.46 µM and an IC50 [6] of 2.2 ± 0.22 µM. For the same compound, the IC50 [7] was 3.5 ± 1 µM, the IC50 [8] was 4.8 ± 1.3 µM and the IC50 [9] was 1.9 ± 0.63 µM. The IC50 [10] was 2.7 ± 0.26 µM, the IC50 (human URAT1 (hURAT1 WT)) was 3.5 µM and the IC50 [11] was 57 ± 6.1 µM. The IC50 [12] was 3.7 ± 0.59 µM, the IC50 [13] was 18 ± 1.6 µM and the IC50 [14] was 4.8 ± 1.6 µM. For the same compound, the IC50 (h-r TM8 URAT1 chimera) was 2.5 ± 0.77 µM, the IC50 (h-r TM9-C URAT1 chimera) was 6.5 ± 1.4 µM and the IC50 (h-r TM9-N URAT1 chimera) was 9.2 ± 3.3 µM. For the same compound, the IC50 (h-r TM11 URAT1 chimera) was 16 ± 1.3 µM, the IC50 (h-r TM6 URAT1 chimera) was 6.8 ± 1 µM and the IC50 (h-r TM7 URAT1 chimera) was 79 ± 8.3 µM. For the same compound, the IC50 (h-r TM5-N URAT1 chimera) was 2.2 ± 0.8 µM, the IC50 (h-r TM5-C URAT1 chimera) was 8.5 ± 2.1 µM and the IC50 (h-r TM12 URAT1 chimera) was 3.9 ± 1.1 µM. For the same compound, the IC50 [15] was 1.1 ± 0.54 µM and the IC50 (h-r IC3 URAT1 chimera) was 2.6 ± 0.66 µM.
